The entries are a selection whose mix differs from that of the whole data set. Activity calls are given as the source filed them. Rule as the data show it: active = activation above about 7.8%; inactive = the rest.
Experiment: SMARCA2 (BRM) function activators, primary screen, cell-based, luminescence, high throughput (AID 652017);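 also: 0% = vehicle wells and 100% = reference activator wells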
Details: MG213 cells, MMTV-luciferase reporter, dexamethasone, overnight; at 9.1 µM; active compounds read high

| SMILES | activation |
| --- | --- |
| O=[N+]([O-])c1ncn(CCn2ncnc2[N+](=O)[O-])n1 | inactive: -3.16% |
| CC(C)(C)C(=O)NC(Sc1ccncn1)C(Cl)(Cl)Cl (centres undefined) | inactive: 1.43% |
| O=C(O)CNc1ccc([As](=O)(O)O)cc1 | inactive: -2.01% |
| COC(=O)C1(C)COP(=O)(Nc2ccccc2)OC1 (centres undefined) | inactive: -4.8% |
| O=[N+]([O-])c1cccc(NC2=NCC(CBr)S2)c1 (centres undefined) | inactive: -3.71% |
| O=P1(N(CCCl)CCCl)OCCCS1 (centres undefined) | inactive: -1.46% |
| O=C(Nc1cc([As](=O)(O)O)ccc1O)c1ccccc1 | inactive: -2.98% |
| CCN(/C(=N/P(=O)(N1CCOCC1)N1CCOCC1)N1CCOCC1)c1ccc(OC)cc1 | inactive: 1.66% |
| Nc1ccc([As](=O)(O)c2ccc(N)cc2)cc1 | inactive: -4.41% |
| C[N+]1=C2C=CC=CC=C2SC12C([N+](=O)[O-])=CC([N+](=O)[O-])=C[C-]2[N+](=O)[O-] (centres undefined) | inactive: -8.65% |
| CC1CCN(C(=O)Oc2c(Cl)cc(Cl)c3cccnc23)CC1 | inactive: -0.66% |
| c1cc(-c2nn[nH]n2)ccc1-c1nn[nH]n1 | inactive: -1.98% |
| CC(C)c1nc(Nc2ccccc2)n(P(=O)(N(C)C)N(C)C)n1 | inactive: -2.48% |
| CC(C)=N/N=C(\N)N[N+](=O)[O-] | inactive: 0.32% |
| CN(C)C(=O)OCCc1n(C)cc[n+]1C | inactive: 0.02% |
| COc1ccc(C2=NCC(CBr)S2)cc1 (centres undefined) | inactive: -0.69% |
| Cc1ccc(NP(=O)(Oc2ccccc2)Oc2ccccc2)nc1 | inactive: -1.15% |
| O=[N+]([O-])c1cc([N+](=O)[O-])c(CCNc2ccccc2)c([N+](=O)[O-])c1 | inactive: -2.47% |
| CCc1nc2c(n1)c1c(non1O)c1c2no[n+]1[O-] | inactive: -8.53% |
| CC(=O)N1C2C3N(C(C)=O)C1C1N(C(C)=O)C(C(N1C(C)=O)N3C(C)=O)N2C(C)=O | inactive: 1.91% |
| O=[N+]([O-])c1cccc2n[nH]nc12 | inactive: -4.56% |
| Oc1ccccc1CNc1ccccn1 | inactive: -3% |

| SMILES | activation |
| --- | --- |
| O=C(NC(Sc1ccncn1)C(Cl)(Cl)Cl)c1ccccc1 (centres undefined) | inactive: -3.69% |
| Nc1cc(N)c2nonc2c1[N+](=O)[O-] | inactive: -5.5% |
| CC(C)CC(=O)NC(Sc1ccc(Cl)cc1)C(Cl)(Cl)Cl (centres undefined) | inactive: -2.05% |
| CN(C(=O)Cc1ccc(Cl)c(Cl)c1)[C@H]1CCCC[C@H]1N1CCCC1 | inactive: -6.09% |
| Cc1ccc(N/C(=N/P(=O)(N2CCOCC2)N2CCOCC2)N2CCOCC2)cc1 | inactive: -1.8% |
| NC(=O)c1cc([N+](=O)[O-])cc([N+](=O)[O-])c1N | inactive: -3.48% |
| CN1CCCC(OC(=O)C(c2ccccc2)c2ccccc2)C1 (centres undefined) | inactive: -1.29% |
| Clc1ccc(Cl)c(NC2=NCC(CBr)S2)c1 (centres undefined) | inactive: -2.47% |
| COc1ccccc1OP(=O)(Nc1ccc(C)cn1)Oc1ccccc1OC | inactive: -3.97% |
| Cc1ccc(OP(=O)(Nc2nccs2)Oc2ccc(C)cc2)cc1 | inactive: -3.26% |
| Nc1cccc2ccc([As](=O)(O)O)cc12 | inactive: 0.96% |
| CN(C(=O)Cc1ccccc1)C1CC[C@@]2(CCCO2)C[C@@H]1N1CCCC1 (some centres undefined) | inactive: -2.53% |
| CCN(N=Nc1nonc1N)c1nonc1N | inactive: 6.05% |
| O=P(Nc1nc2ccc(Cl)cc2s1)(c1ccccc1)c1ccccc1 | inactive: 0.19% |
| CN(C)P(=O)(N(C)C)n1c(Nc2ccccc2)nnc1-c1ccccc1 | inactive: -3.67% |
| CC(=O)Nc1ccc([As](=O)(O)O)cc1 | inactive: -0.98% |
| O=C(O)c1ccccc1[As](=O)(O)O | inactive: 1.14% |
| CCCC1OP(N)(=O)OCC1CC (centres undefined) | inactive: 3.82% |
| CCn1c(=O)n(C2CCN(CC3CCCCCCC3)C[C@H]2CO)c2ccccc21 (some centres undefined) | inactive: 0.93% |
| Cc1cc(SC(NC(=O)c2ccc(F)cc2)C(Cl)(Cl)Cl)ncn1 (centres undefined) | inactive: 1.2% |
| CCOP(=O)(Nc1ccccc1)OCC | inactive: 2.36% |
| CN(C(=O)Cc1ccc(Cl)c(Cl)c1)[C@H]1CCCC[C@@H]1N1CCCC1 | inactive: -4.89% |

| SMILES | activation |
| --- | --- |
| Cc1ccc(NP(=O)(Oc2ccccc2F)Oc2ccccc2F)nc1 | inactive: 0.95% |
| O=C(OC1CN2CCC1CC2)c1ccccc1 (centres undefined) | inactive: -1.47% |
| CCC(=O)N1C2C3N(C(=O)CC)C1C1N(C(=O)CC)C(C(N1C(=O)CC)N3C(=O)CC)N2C(=O)CC | inactive: 0.26% |
| COC(=O)c1cc2c(s1)N=C(c1ccccc1)N(C)P2(=O)N1CCOCC1 (centres undefined) | inactive: 0.66% |
| CC(=O)NC(SC(=S)N(CC(C)C)CC(C)C)C(Cl)(Cl)Cl (centres undefined) | inactive: -2.24% |
| Cc1ccc(OP(=O)(Nc2ccccn2)Oc2ccc(C)cc2)cc1 | inactive: -2.55% |
| CC(NC(=O)COC(=O)C(O)(c1ccccc1)c1ccccc1)c1ccccc1 (centres undefined) | inactive: 1.75% |
| Cc1ccccc1OP(=O)(Nc1ccccn1)Oc1ccccc1C | inactive: -5.75% |
| O=c1c2cc([N+](=O)[O-])ccc2[nH]c2c([N+](=O)[O-])cc([N+](=O)[O-])cc12 | inactive: -4.17% |
| CN(C)C(=O)Oc1noc2ccccc12 | inactive: -0.06% |
| c1ccc(-c2nn[nH]n2)c(-c2nn[nH]n2)c1 | inactive: -4.35% |
| Cc1ccc(NP(=O)(Oc2cccc(C)c2)Oc2cccc(C)c2)nc1 | inactive: -4.63% |
| O=C(NC1CCS(=O)(=O)C1)NP(=S)(Oc1ccccc1)Oc1ccccc1 (centres undefined) | inactive: -2.82% |
| CCNC(=S)/N=C(\N)N[N+](=O)[O-] | inactive: -2.89% |
| O=P1(N(CCCl)CCCl)OCCC2CCCCN21 (centres undefined) | inactive: -8.21% |
| Cc1ccccc1CN(C)C(=O)COC(=O)C(O)(c1ccccc1)c1ccccc1 | inactive: -0.92% |
| C[C@H]1OP(=O)(Oc2ccccc2)C[C@@H]2O[C@@H]21 (some centres undefined) | inactive: 2.31% |
| C[C@@H]1C=CCP(=O)(Oc2ccccc2)O1 (some centres undefined) | inactive: -1.99% |
| CC(=O)c1ccc(N2CC2c2ccncc2)cc1 (centres undefined) | inactive: 1.44% |
| N#C/C(=C\c1ccc(N(CCBr)CCBr)cc1)C(N)=O | inactive: 2.11% |

Reference: PubChem BioAssay AID652017 (The Scripps Research Institute Molecular Screening Center, 2013)
